The nature of this series: Selectivity index, ratio of CC50 for human Hep2 cells to EC50 for Respiratory syncytial virus Long infected in human Hep2 cells.

`Cc1ccc(C)c(NC(=O)[C@@H]2CCCN2S(=O)(=O)c2cccc3cccnc23)c1`: the selectivity ratio is 13.4.
The figure for `Cc1cc(C)cc(NC(=O)[C@@H]2CCCN2S(=O)(=O)c2cccc3cccnc23)c1` is 0.6.
The figure for `Cc1ccc(C(C)C)cc1NC(=O)[C@@H]1CCCN1S(=O)(=O)c1cccc2cccnc12` is 0.2; for `Cc1cccc(NC(=O)[C@@H]2CCCN2S(=O)(=O)c2cccc3cccnc23)c1` it is 0.5; for `NC(=O)c1ncn([C@@H]2O[C@H](CO)[C@@H](O)[C@H]2O)n1` [RIBAVIRIN] it is 3.6.
The figure for `O=C(Nc1ccccc1)[C@@H]1CCCN1S(=O)(=O)c1cccc2cccnc12` is 0.7.
With `Cc1ccc(C(F)(F)F)cc1NC(=O)[C@@H]1CCCN1S(=O)(=O)c1cccc2cccnc12`, the selectivity ratio was found to be 0.1.
On to `COc1ccc(C)c(NC(=O)[C@@H]2CCCN2S(=O)(=O)c2cccc3cccnc23)c1`, for which the selectivity ratio amounted to 10.4.
The figure for `Cc1ccccc1NC(=O)[C@@H]1CCCN1S(=O)(=O)c1cccc2cccnc12` is 2.1.

For the origin of these results see ChEMBL document CHEMBL2169872, “(S)-N-(2,5-Dimethylphenyl)-1-(quinoline-8-ylsulfonyl)pyrrolidine-2-carboxamide as a small molecule inhibitor probe for the study of respiratory syncytial virus infection” (J Med Chem, 2012).
